Screening data from PubChem.
PDI turbidity: inhibitors of human protein disulfide isomerase; P07237; PDI insulin aggregation turbidity, A650, 90 min; inhibition, % at 10 µM; hit rate 0.052% among 350,000; AID 588391;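 active = mean inhibition across replicates of 30% or more, whatever share of single replicates reach that level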
FGF22 binding: binders of recombinant human FGF22 by thermal shift; hit rate 1.5% among 340,000; Q9HCT0; AID 651658; SYPRO orange fluorescence; percent of sucrose octasulfate shift, DMSO zero; activity (Tm shift, normalised), % at 9.99 µM;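 active = mean Tm shift, scaled 0 neutral to 100 positive control, at about 1.3% or above, every replicate too, limit read from the data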
SIRT5 inh: blocks human SIRT5 desuccinylation of peptide. hit rate 1.1% among 330,000. inhibition, % at 15 µM. AID 652115. Purified SirT5, succinyl-peptide AMC, trypsin-coupled fluorescence; in the data active = inhibition above about 15%
UUG fidelity: yeast start codon fidelity modulation; activity score, % at 18.7 µM; actives 0.13% (n = 350,000); S. cerevisiae UUG-firefly luciferase reporter, luminescence/redox ratio; AID 602363;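 active means replicate mean at a twofold rise or more, about +100% in these data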;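 further: firefly luciferase made from a UUG start codon reports start codon fidelity; reporter light over untreated wells divided by growth signal over untreated wells; some hits fall short of that in this replicate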
S100A4 MyoIIA: blocks human S100A4 binding to myosin IIA peptide. P26447. S100A4/TAMRA-MyoIIA peptide fluorescence polarization. inhibition, % at 10.7 µM. hit rate 0.14% among 360,000;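 active = mean inhibition of at least 70% across replicates, with every replicate also reaching that level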
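Compound dosing: one dose per compound; test system: human S100A4 monomer with TAMRA-labelled myosin IIA peptide; probe or stimulus: TAMRA-labelled myosin IIA heavy-chain peptide probe, 5 nM; medium: HEPES buffer with Ca2+, pH 7.2; schedule: 5 min incubation before reading; benchmarks: neutral control DMSO, positive control TFP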
ERp5 block: inhibitors of human ERp5 | inhibition, % at 9.99 µM | hit rate 0.05% among 350,000 | Q15084 | ERp5 insulin aggregation, absorbance 650 nm, 90 min;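 active = mean replicate inhibition above about 25%, with every replicate also reaching it, limit read from the data, passing the limit was not always enough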
An asterisk follows results filed as active; . = no result given. Only some compounds are listed: those with a hit (about 2.2% of all), similar ones and a draw of the others.

item | compound | S100A4 MyoIIA | PDI turbidity | UUG fidelity | ERp5 block | SIRT5 inh | FGF22 binding
1 | O=C(COC(=O)Cn1cnc2ccccc21)Nc1cc2c(cc1Cl)C(=O)c1ccccc1C2=O | 5.2 | -4.4 | -12.8 | 3.1 | -4.4 | 44.1*
2 | Cc1cnc(C(=O)NCc2ccc(Cl)cc2Cl)cn1 | 2.2 | -7.8 | . | -3.8 | 2.2 | 43.3*
3 | C/C(N)=C(/C#N)C(=O)COC(=O)CNS(=O)(=O)c1c(F)cccc1F | -2.3 | -0.6 | -5.9 | 8.7 | -1.0 | 43.5*
4 | CC(=O)N1CC[C@@H]2[C@H](CO)Nc3ccc(C#Cc4cccnc4)cc3[C@@H]21 | -1.2 | . | -4.8 | -3.3 | 17.9* | 0.0
5 | CCC(=O)N1CC[C@@H]2[C@@H](CO)Nc3ccc(C#Cc4cccnc4)cc3[C@@H]21 | -55.0 | . | 1.6 | 6.6 | 18.9* | 0.5
6 | CN1c2ccc(C#Cc3cccc(F)c3)cc2[C@H]2[C@H](CCN2S(=O)(=O)c2ccccc2F)[C@@H]1CO | -4.8 | . | 9.6 | 5.1 | 2.7 | 0.6
7 | CN1c2ccc(C#Cc3cccnc3)cc2[C@@H]2[C@@H](CCN2S(=O)(=O)c2ccccc2F)[C@@H]1CO | 119.7* | . | 9.1 | -2.5 | -25.8 | -0.6
8 | O=C(c1cccnc1)N1CC[C@@H]2[C@@H](CO)Nc3ccc(C#Cc4cccnc4)cc3[C@@H]21 | 17.5 | . | . | 3.0 | 8.9 | .
9 | N[C@H]1CC[C@@H](CCn2cc(-c3ccccn3)nn2)O[C@H]1CO | 5.0 | . | . | 0.1 | -2.9 | 0.0
10 | COc1ccccc1CCC(=O)NC1CCCN(c2ccc(C(F)(F)F)cn2)C1 (stereo not drawn) | -3.2 | -8.0 | -14.9 | -1.0 | -1.9 | -0.2
11 | O=C(CCc1ccccc1Cl)NC1CCCN(c2ccc(C(F)(F)F)cn2)C1 (stereo not drawn) | 178.9* | -7.8 | -15.4 | 8.1 | -0.3 | -0.1
12 | CN(C)CCCNC(=O)[C@@H]1[C@@H](CO)[C@@H]2Cn3c(cccc3=O)[C@@H]2N1C(=O)Nc1ccccc1 | -0.8 | . | . | 5.0 | 1.2 | 0.0
13 | O=C(C[C@H]1CC[C@@H]2[C@H](COC[C@@H](O)CN2Cc2ccc(F)cc2)O1)N1CCc2ccccc2C1 | 19.0 | . | 7.0 | -3.5 | -0.6 | -0.2
14 | Cc1noc(C)c1C(=O)N(C)C[C@@H]1OCc2ccccc2-c2c(n(C)c3ccccc23)C(=O)N([C@@H](C)CO)C[C@H]1C | 2.0 | . | . | 10.0 | 1.0 | 0.4
15 | Cc1noc(C)c1C(=O)N(C)C[C@@H]1OCc2ccccc2-c2c(n(C)c3ccccc23)C(=O)N([C@H](C)CO)C[C@H]1C | -6.8 | -2.0 | -11.1 | -0.6 | 16.9* | -0.1
16 | C[C@@H]1CN([C@H](C)CO)C(=O)c2c(c3ccccc3n2C)-c2ccccc2CO[C@@H]1CN(C)C(=O)c1cc(Cl)cc(Cl)c1 | 3.3 | . | . | 7.0 | 19.0* | -0.8
17 | CCc1ccc(OCC(=O)NN2Cc3ccccc3C2=N)cc1 | -7.4 | -5.3 | . | -6.8 | 23.9* | 43.3*
18 | COc1cc(Nc2ncc3c(n2)CCN(C(=O)Nc2ccc(C(C)C)cc2)C3)cc(OC)c1OC | -5.3 | 0.4 | -4.4 | 4.4 | 18.3* | 0.0
19 | Cc1c(C(=O)N2CCCCCC2)oc2ccccc12 | . | -4.3 | -8.3 | . | . | .
20 | Cc1c(C(=O)N2CCOCC2)oc2ccccc12 | -1.7 | -1.4 | -8.1 | 1.5 | 15.8* | 0.3
21 | Cc1c(C(=O)N2CCCCC2)oc2ccccc12 | -1.8 | -1.6 | -4.5 | -0.7 | . | 43.2*
22 | COc1ccc2c3c(n(C)c2c1)[C@@H](CO)N(C(=O)Cc1ccccc1)CC31CCN(C)CC1 | 4.7 | . | . | 3.3 | . | -0.1
23 | O=C(CC1CC1)N1CC(=O)N2[C@H](C1)[C@@H](c1ccc(-c3ccccc3)cc1)[C@@H]2CO | 3.4 | . | . | -1.1 | -5.2 | .
24 | C[C@H](CO)N1C[C@H](C)[C@H](CN(C)C(=O)Nc2ccc3c(c2)OCO3)Oc2ccc(NC(=O)CCN3CCOCC3)cc2C1=O | 5.7 | . | -9.7 | -7.8 | -4.8 | -0.3
25 | O=C(CNC(=O)C1COc2ccccc2O1)N/N=C\c1ccc(Br)cc1 (stereo not drawn) | 1.8 | 1.8 | -2.7 | -7.2 | 22.7* | -0.2

Some of the entries above, reformatted.
[10] COc1ccccc1CCC(=O)NC1CCCN(c2ccc(C(F)(F)F)cn2)C1 (stereo not drawn)
  S100A4 MyoIIA = -3.2
  PDI turbidity = -8.0
  UUG fidelity = -14.9
  ERp5 block = -1.0
  SIRT5 inh = -1.9
  FGF22 binding = -0.2

[11] O=C(CCc1ccccc1Cl)NC1CCCN(c2ccc(C(F)(F)F)cn2)C1 (stereo not drawn)
  S100A4 MyoIIA = 178.9*
  PDI turbidity = -7.8
  UUG fidelity = -15.4
  ERp5 block = 8.1
  SIRT5 inh = -0.3
  FGF22 binding = -0.1

[12] CN(C)CCCNC(=O)[C@@H]1[C@@H](CO)[C@@H]2Cn3c(cccc3=O)[C@@H]2N1C(=O)Nc1ccccc1
  S100A4 MyoIIA = -0.8
  PDI turbidity = .
  UUG fidelity = .
  ERp5 block = 5.0
  SIRT5 inh = 1.2
  FGF22 binding = 0.0

[13] O=C(C[C@H]1CC[C@@H]2[C@H](COC[C@@H](O)CN2Cc2ccc(F)cc2)O1)N1CCc2ccccc2C1
  S100A4 MyoIIA = 19.0
  PDI turbidity = .
  UUG fidelity = 7.0
  ERp5 block = -3.5
  SIRT5 inh = -0.6
  FGF22 binding = -0.2

(next part)
item | compound | S100A4 MyoIIA | PDI turbidity | UUG fidelity | ERp5 block | SIRT5 inh | FGF22 binding
26 | COc1ccc(-c2ccc(C(=O)O)c(=O)[nH]2)cc1 | 8.5 | -6.3 | . | 3.3 | -36.5 | 43.6*
27 | COc1ccc(-c2cc(=O)[nH]c(=S)[nH]2)cc1 | 1.7 | -15.0 | -7.3 | -7.2 | . | -0.1
28 | Cc1nc2nc(-c3ccc(F)cc3)cn2nc1C | -11.8 | -3.8 | . | 1.0 | 5.8 | -0.2
29 | Cc1nc2nc(-c3ccccc3)cn2nc1C | -14.8 | 3.4 | -14.2 | 3.8 | 21.5* | 0.1
30 | Cc1nc(N2[C@H](CO)[C@H](c3ccccc3)[C@H]2CNCC2CCCC2)sc1C | -15.2 | . | . | 0.8 | -1.2 | .
31 | CC[n+]1oc(-c2ccccc2)cc1C | -0.8 | 0.3 | . | 3.2 | -1.1 | 43.3*
32 | CNC(=O)/C=C/c1cccc(C(F)(F)F)c1 | 2.5 | 0.5 | . | 0.0 | -0.9 | .
33 | CC(C)(C)NC(=O)/C=C/c1ccc(C(F)(F)F)cc1 | 5.0 | -10.1 | . | -2.7 | -3.7 | 43.2*
34 | CCCNC(=O)COC(=O)c1ccc(S(=O)(=O)N2CCCC2)cc1 | 0.9 | -6.2 | . | -3.7 | -1.5 | 43.9*
35 | O=C(COC(=O)c1ccc(S(=O)(=O)Nc2ccccc2)cc1)NCCC1=CCCCC1 | -4.1 | -2.9 | . | -0.3 | -3.9 | 43.6*
36 | CCCNC(=O)COC(=O)c1ccc(Cl)c(S(=O)(=O)N2CCCC2)c1 | . | 0.2 | -14.0 | . | . | .
37 | C[C@H](CO)N1C[C@H](C)[C@H](CN(C)C(=O)Nc2ccc(C(F)(F)F)cc2)OCCCC[C@H](C)Oc2ccc(NC(=O)Nc3ccccc3)cc2C1=O | -5.0 | . | -25.6 | 5.6 | 9.4 | 0.1
38 | CCNC(=O)C1(C)CCCN(C(=O)c2cc3ccccc3s2)C1 (stereo not drawn) | -1.0 | 0.9 | 0.2 | 2.8 | . | 0.0
39 | CCNC(=O)C1(C)CCCN(C(=O)c2sc(-c3ccccc3)nc2C)C1 (stereo not drawn) | 9.9 | -8.8 | -1.2 | -2.7 | . | 43.0*
40 | CCNC(=O)C1(C)CCCN(C(=O)c2ccccc2Br)C1 (stereo not drawn) | -1.2 | -2.1 | -10.9 | 3.7 | . | 43.4*
41 | C[C@H]1CN([C@@H](C)CO)C(=O)c2cc(-c3cncnc3)cnc2O[C@@H]1CN(C)C(=O)Cc1cccnc1 | -10.8 | . | -2.3 | -8.0 | 0.2 | -0.1
42 | CNC(=O)c1ccc(Nc2nc(-c3ccccc3)nc3ccccc23)cc1 | 6.8 | 4.8 | -12.7 | 1.0 | -0.4 | 0.1
43 | O=C(O)c1ccc(Nc2nc(-c3ccccc3)nc3ccccc23)cc1 | 5.1 | 2.6 | -6.2 | 0.6 | 39.2* | -0.1
44 | O=C(O)c1cccc(Nc2nc(C(F)(F)F)nc3ccccc23)c1 | 1.6 | 2.0 | . | -4.9 | 1.9 | 2.0*
45 | C[C@H](CO)N1C[C@H](C)[C@@H](CN(C)Cc2ccccc2)Oc2ccc(NS(C)(=O)=O)cc2CC1=O | 8.2 | . | 14.7 | 1.3 | 0.8 | -0.1
46 | COc1ccc2c3c(n(C)c2c1)[C@H](CO)N(C(=O)C1CC1)CC31CCN(C(=O)c2ccncc2)CC1 | 1.0 | . | . | 1.9 | 7.9 | -0.2
